We go through four compounds from patent US6924302B2, “Substituted triazole diamine derivatives as kinase inhibitors” (Ortho McNeil Pharmaceutical, Inc., priority 2000, dated 2005).

Sequences of proteins named here, by UniProt entry; tags and fusion partners are left off. Residues count along the entry.
UniProt P06213, 980-1352: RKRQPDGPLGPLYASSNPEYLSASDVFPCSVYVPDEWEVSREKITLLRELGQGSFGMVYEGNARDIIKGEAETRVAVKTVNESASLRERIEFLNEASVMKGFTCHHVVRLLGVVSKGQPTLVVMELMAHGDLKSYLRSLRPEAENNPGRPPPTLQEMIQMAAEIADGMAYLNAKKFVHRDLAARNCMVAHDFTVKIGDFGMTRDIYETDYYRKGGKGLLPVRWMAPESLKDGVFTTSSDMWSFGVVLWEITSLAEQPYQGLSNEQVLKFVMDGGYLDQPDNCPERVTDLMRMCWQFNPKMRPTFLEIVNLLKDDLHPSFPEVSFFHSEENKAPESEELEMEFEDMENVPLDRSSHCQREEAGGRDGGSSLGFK
UniProt O08775, 786-1343: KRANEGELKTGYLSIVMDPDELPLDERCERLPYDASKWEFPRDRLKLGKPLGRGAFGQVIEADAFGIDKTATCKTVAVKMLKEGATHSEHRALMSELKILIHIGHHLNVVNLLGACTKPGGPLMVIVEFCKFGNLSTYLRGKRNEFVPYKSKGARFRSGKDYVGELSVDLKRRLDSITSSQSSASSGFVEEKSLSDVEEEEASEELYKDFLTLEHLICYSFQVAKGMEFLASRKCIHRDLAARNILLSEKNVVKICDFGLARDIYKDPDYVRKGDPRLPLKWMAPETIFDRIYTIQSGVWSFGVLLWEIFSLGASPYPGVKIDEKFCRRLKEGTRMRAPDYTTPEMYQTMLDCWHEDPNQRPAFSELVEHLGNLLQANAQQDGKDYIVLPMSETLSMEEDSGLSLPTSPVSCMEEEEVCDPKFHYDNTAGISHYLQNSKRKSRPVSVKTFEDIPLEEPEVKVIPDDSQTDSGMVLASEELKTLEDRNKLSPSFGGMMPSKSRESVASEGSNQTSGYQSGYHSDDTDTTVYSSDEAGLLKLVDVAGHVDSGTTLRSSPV

Type in all cases: biochemical
Assay [1] concerns the target Insulin Receptor Kinase (Homo sapiens, UniProt P06213). In words: Kinase Selectivity Assay Insulin Receptor Kinase. The protocol:
(§1) Assays to test compound inhibition of other kinases were preformed using methods that measure the amount of phosphorylation of a biotinylated peptide substrate. Biotinylated peptide substrates were selected from the literature as appropriate for the enzyme being evaluated. […] Assay conditions vary slightly for each protein kinase, for example, insulin receptor kinase requires 10 mM MnCl2 for activity and Calmodulin-dependent protein kinase requires calmodulin and 10 mM CaCl2. These assay conditions are known in the art. The reaction mixture was dispensed into the wells of a streptavidin coated Flashplate and 1 μl drug stock in 100% DMSO was added to a 100 μl reaction volume resulting in a final concentration of 1% DMSO on the reaction. Enzyme was diluted in 50 mM Tris-HCl pH=8.0, 0.1% BSA and add to each well. The reaction was incubated for one hour at 30° C. in the presence of compound. […] The plate was read on a scintillation counter to determine ^33P-γ-ATP incorporated into the immobilized peptide. […] A maximum and minimum signal for the assay was determined on each plate. The IC50 was calculated from the dose response curve of the percent inhibition of the maximum signal in the assay according to the formula [max signal—background/test compound signal—background (100)=% inhibition] by graphing the percent inhibition against the log concentration of test compound. […]

Assay [2] deals with T1, VEGF-R (vascular endothelial growth factor receptor-2) (Rattus norvegicus, UniProt O08775).
T1 construct: polyhistidine (6xHIS) (N)
In words: VEGF-R Screening Assay. The protocol:
70 μL of the kinase reaction mixture was dispensed into the well of a streptavidin coated FlashPlate™ (Cat. # SMP103, NEN, Boston, Mass.). Then 1 μL of test compound stock in 100% DMSO was added to the wells resulting in a final concentration of 1% DMSO in the reaction with a 100 μL final reaction volume. Next, soluble rat tyrosine kinase containing an N-terminal 6×HIS tag was diluted in 50 mM Tris-HCl pH=8.0, 0.1% BSA at a concentration of 5 ng per μL and 30 μL (150 ng enzyme per test well) was added to each well to initiate the reaction. The reaction was incubated for one hour at 30° C. At the end of the 1-hour incubation, the reaction was terminated by aspirating the reaction mixture from the plate and washing the wells twice with PBS containing 100 mM EDTA. The PLC1 biotinylated peptide substrate became immobilized on the Flashplate™ and the incorporation of ^33P-γ-ATP was measured by reading the plate on a scintillation counter. Inhibition of the enzymatic activity of the VEGF-R was measured by observing a reduced amount of ^33P-γ-ATP incorporated into the immobilized peptide.
as §1, with “art.” for “art. The reaction mixture was dispensed into the wells of a streptavidin coated Flashplate and 1 μl drug stock in 100% DMSO was added to a 100 μl reaction volume resulting in a final concentration of 1% DMSO on the reaction. Enzyme was diluted in 50 mM Tris-HCl pH=8.0, 0.1% BSA and add to each well. The reaction was incubated for one hour at 30° C. in the presence of compound.”

In assay [3] the target is T2, Casein Kinase 1 (CK1 delta isoform) (Rattus norvegicus, UniProt Q06486).
T2 construct: a truncation at amino acid 318 of the C-terminal portion of the rat CK1 delta isoform; purchased New England Biolabs 6030; host or cells: E. coli
T2 sequence (Q06486 1-317): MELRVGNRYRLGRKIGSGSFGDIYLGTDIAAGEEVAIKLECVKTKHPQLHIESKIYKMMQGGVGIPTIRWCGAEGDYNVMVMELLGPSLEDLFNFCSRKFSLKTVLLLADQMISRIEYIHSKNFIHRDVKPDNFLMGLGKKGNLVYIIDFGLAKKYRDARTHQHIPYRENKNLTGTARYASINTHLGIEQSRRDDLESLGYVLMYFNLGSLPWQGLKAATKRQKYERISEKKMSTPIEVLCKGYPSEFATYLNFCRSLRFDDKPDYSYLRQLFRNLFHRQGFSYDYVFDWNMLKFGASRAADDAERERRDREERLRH
In words: Kinase Selectivity Assay Casein Kinase 1. As to the method: as §1

Broadly, the IC50 is the midpoint of a concentration-inhibition curve. In turn, `Cc1ccc(F)c(C(=O)n2nc(Nc3ccc(S(N)(=O)=O)cc3)nc2N)c1F` [Cpd 2, 4-[[5-amino-1-(2,6-difluoro-3-methylbenzoyl)-1H-1,2,4-triazol-3-yl]amino]-benzenesulfonamide] returned a 50% inhibitory concentration (IC50) in assay [1] of 9800 nM.

As to `Cc1ccsc1C(=O)n1nc(Nc2ccc(S(N)(=O)=O)cc2)nc1N` [Cpd 15, 4-[[5-amino-1-[(3-methyl-2-thienyl)carbonyl]-1H-1,2,4-triazol-3-yl]amino]-benzenesulfonamide], the IC50 in assay [2] (VEGF-R IC50, Kinase Selectivity, Tables 2a-2k) amounted to 51 nM; in assay [2] (VEGF-R IC50, Table 1) it was 51.1 nM.

On to `Cc1cc(C)c(C(=O)n2nc(Nc3ccc(S(N)(=O)=O)cc3)nc2N)s1` [Cpd 33, 4-[[5-amino-1-[(3,5-dimethyl-2-thienyl)carbonyl]-1H-1,2,4-triazol-3-yl]amino]-benzenesulfonamide], for which the IC50 in assay [3] amounted to 104 nM.

On to `Nc1nc(Nc2ccc(S(N)(=O)=O)cc2)nn1C(=S)Nc1c(F)cccc1F` [Cpd 66, 5-amino-3-[[4-(aminosulfonyl)phenyl]amino]-N-(2,6-difluorophenyl)-1H-1,2,4-triazole-1-carbothioamide], for which the IC50 in assay [2] (VEGF-R IC50, Table 1) was determined as 32 nM.
